According to PubChem BioAssay AID1347076 (National Center for Advancing Translational Sciences (NCATS), 2019):
The list shows a part of the results, in another mix than the full data. Inconclusive results are not listed. Activity calls are given as the source filed them. Calls follow the shape of the dose curve; as a rule, active = well fitted cell-killing curve with a large enough effect; inconclusive = small, poorly fitted or top-dose-only effect, or effect the other way; inactive = flat fitted curve, though single readings scatter.

test: qHTS assay for MDR1-selective chemotherapeutics: Primary screen using the drug-selected MDR subline cells KB-V1; details: KB-V1 MDR cells viability, CellTiter-Glo, 72 h; at 46.1 µM (top of the series); also: nearly all actives have a fitted effect of over 60% in size
Text: A prime difficulty in effectively treating cancer is the development of cellular resistance to multiple structurally unrelated anticancer drugs, a phenomenon known as multidrug resistance (MDR). […] Numerous strategies to overcome P-gp-mediated MDR have been explored, including the design of drugs that evade recognition and efflux, and development of inhibitors to block efflux and restore drug accumulation. […] An alternative approach is to exploit resistance by identifying drugs that target MDR cells over the non-resistant parental cells from which they were selected. […]
Our goal is to identify compounds that selectively kill P-gp-expressing MDR cells. […] This assay will be utilized to conduct a quantitative high-throughput screen (qHTS) in collaboration with the NIH Chemical Genomics Center to identify selective agents, and probe hits arising from the screen will be validated using secondary assays and characterized through a well-established follow-up research program. […]
Briefly, 5 microL of media containing either KB-V1 cells (columns 1-2, 4-48) are dispensed into Greiner white, treated solid-bottom 1536-well assay plates (media-only control is added to column 3). […] CellTiter-Glo (2.5 µL/well) is then added, and the plates are read in a ViewLux reader (Perkin-Elmer, clear luminescence filter, 1 second exposure, 1x binning) following a 10 minute incubation. […]
% is scaled to controls: 0 for no effect and ±100 for the full control effect.

Row | SMILES | activity change, negative = cytotoxicity
1 | CCC(=O)N(c1ccccc1)C1(COC)CCN(CCc2cccs2)CC1 | inactive: -19.2%
